# Nrf2 ARE act: activators of Nrf2 (ARE) signaling; AREc32 ARE-luciferase reporter (MCF7-derived line), luminescence, 24 h; Potency, µM (top dose mostly 46.1 µM), inactives show at the top dose activation, usual class: activators; 0.31% of 410,000 active; also: potency is read from the fitted curve at half-maximal effect; % of control where 0% means no effect; nearly all actives have a fitted effect of over 65% in size
#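 Nrf2 activation is followed as ARE-luciferase induction in the AREc32 line after one day of compound treatment; luminescence is read with Steady-Glo.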
# p53 reactivation: mutant p53 re-activation in reporter cells; H1299 p53-A138V BP100-luciferase reporter, luminescence, 24 h; Potency, µM (top dose mostly 92.2 µM), for the others: at the highest dose activity change, positive = activation, usual class: activators; 0.063% of 320,000 active; AID 504706; also: potency is read from the fitted curve at half-maximal effect; % of control where 0% means no effect; nearly all actives have a fitted effect of over 45% in size
#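 p53-null H1299 cells stably carrying temperature-sensitive p53-A138V and a BP100-luciferase reporter were pinned with compounds (4-point, 1:5 series) and held 24 hrs at 37 deg C. Luminescence was read 10 min after detection reagent.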
# miR-21 reporter: miR-21 reporter, rising signal; HeLa miR-21 FLuc reporter, luciferase, 48 h; Potency, µM (highest dose often 38.3 µM), for the others: top-dose reporter change, positive = more light; 340,000 tested, under 10 active; AID 2288; active = well fitted rising curve with a large enough effect; inconclusive = small, poorly fitted or top-dose-only effect; inactive = no such curve, though single readings can be large or run the other way;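 further: % of control where 0% means no effect; miR-21 action dims this reporter so a rising signal means less miR-21 action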
#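 HeLa cells stably expressing CMV-driven firefly luciferase with a downstream miR-21 binding sequence, endogenously expressing miR-21, were treated with titrations (up to about 40uM final) for 48 hours at 37 degree Celsius. Luciferase luminescence was read after lysis.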
# ClpP mod: qHTS Assay for Activators of ClpP; ATP-dependent Clp protease proteolytic subunit (Bacillus subtilis (strain 168)), P80244; purified B. subtilis ClpP, FRET peptide cleavage, 20 min; Potency, µM (titrated, usually from 57.5 µM), for the others: at the top dose activity change, negative = active; 1.9% of 340,000 active; AID 651965, 2013; active = well fitted falling curve with a large enough effect; inconclusive = small, poorly fitted or top-dose-only effect; inactive = no such curve, though single readings can be large or run the other way; also: potency is read from the fitted curve at half-maximal effect; the source files actives as falling curves though it sought activators and does not explain the sign; nearly all actives have a fitted effect of over 65% in size
#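 Purified B. subtilis ClpP, 10 microg/mL final in Tris/HCl pH8 with KCl, BSA, glycerol and Tween-20, cleaved an Abz/nitrotyrosine-quenched decapeptide. Fluorescence (ex 320, em 430) was read at 0 and 20 min at room temperature. Delta was normalized to 5.8 microM ADEP and DMSO/no-enzyme controls.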
# A549 viability: A549 cytotoxicity, counter-screen for Nrf2 inhibitors; Potency, µM (series often up to 46 µM), without a hit: top-dose activity change, negative = cytotoxicity, most hits filed as inhibitors; 0.16% of 390,000 active; A549 ARE-Fluc cells, CellTiter-Fluor viability, 18-24 h; also: potency is read from the fitted curve at half-maximal effect; % is scaled to controls: 0 for no effect and ±100 for the full control effect
#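 A549 ARE_Fluc cells in 5% FBS OPTI-MEM were exposed to compounds in concentration-response for 18-24 h at 37 deg C. Viability was read by CellTiter-Fluor fluorescence (Ex 405/Em 525) after 30 min, before the luciferase read.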
# Nrf2 inh: inhibitors of Nrf2 signaling | A549 ARE-Fluc reporter, luciferase luminescence, 18-24 h | Potency, µM (highest dose often 46 µM), inactives show at the highest dose activity change, negative = inhibition, actives largely listed as inhibitors | 2.1% of 360,000 active | AID 504444; also: potency is read from the fitted curve at half-maximal effect; % is scaled to controls: 0 for no effect and ±100 for the full control effect; nearly all actives have a fitted effect of over 60% in size
#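 Quantitative HTS in A549 cells stably bearing an antioxidant response element-firefly luciferase construct. Inhibition of Nrf2-driven transcription was scored by luminescence after 18-24 h of compound exposure at 37 °C.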
# An asterisk follows results filed as active; ? = inconclusive; . = no result; [ ] = another dose, or the depositor's remark. Sampled rows, rich in hits. Any-hit rate of the full collection: about 3.7%. Unless noted, calls follow the shape of the dose curve; as a rule, active = well fitted curve in the direction sought with a large enough effect; inconclusive = small, poorly fitted or top-dose-only effect, or another doubt; inactive = no such curve, though single readings can be large; an effect the other way counts as inactive or inconclusive.
no. | molecule | Nrf2 ARE act | Nrf2 inh | p53 reactivation
1 | CCOc1cc2[nH]c(=O)n(CCCC(=O)NCc3ccco3)c(=O)c2cc1OCC | 1% | -4% | -12%
2 | O=C(CCN1C(=O)c2ccccc2S1(=O)=O)NCc1ccco1 | 0% | 6% | -1%
3 | CCOc1cc2[nH]c(=O)n(CCCCC(=O)N3CCN(c4cccc(Cl)c4)CC3)c(=O)c2cc1OCC | -1% | . | .
4 | CCn1c2c(c(=N)c3ccccc31)CCC2 | 0% | 13µM* | 1%
5 | CCn1c2c(c(=N)c3c1CCC3)CCC2 | 0% | 31% | 0%
6 | CCOC(=O)Cn1c(=O)n(-c2ccccc2OC)c2nc(-c3ccccc3C)nc(C(N)=O)c21 | 3% | . | .
7 | CCN(Cc1ccccc1)S(=O)(=O)c1ccc(C(=O)Nc2nnc(-c3ccccc3OC)o2)cc1 | 0% | 13µM* | -2%
8 | COc1ccccc1-c1nnc(NC(=O)CCS(=O)(=O)c2ccc(F)cc2)o1 | 22µM* | . | .
9 | CCOc1ccc(C(=O)NCCc2sc(-c3cccc(F)c3)nc2C)cc1OCC | 0% | . | .
10 | Cc1ccc(NC(=O)c2ccc(=O)[nH]n2)cc1S(=O)(=O)Nc1ccc(SC(F)F)cc1 | 4% | 21µM* | -1%

no. | A549 viability | miR-21 reporter | ClpP mod
1 | -2% | -11% | 25µM*
2 | -9% | -3% | 1%
3 | 2% | 7% | -6%
4 | -10% | 23% | -3%
5 | -1% | 4% | .
6 | 0% | 4% | -8%
7 | -22% | 2% | 1%
8 | . | . | -10%
9 | -10% | 0% | 4%
10 | -11% | . | 0%

no. | molecule | Nrf2 ARE act | Nrf2 inh | p53 reactivation
11 | Cc1ccc(NC(=O)c2ccc(=O)[nH]n2)cc1C | 3% | ? | 10%
12 | C#CCCCCCCC#CCN(C)C | 0% | -9% | -1%
13 | CN(C)CC#CCCCCCCC#CCN(C)C | . | . | 1%
14 | COC(=O)c1c(NC(=O)c2nc(SCc3ccccc3C)ncc2Cl)sc2c1CCCC2 | -1% | 1% | .
15 | Oc1ccccc1Oc1c(F)c(F)nc(N2CCCC2)c1F | 2% | 13% | -6%
16 | CC(=O)/C=C/c1ccccc1Oc1c(F)c(F)nc(F)c1F | 7.9µM* | 6% | ?
17 | COc1ccc([C@]23Cc4cc(C#N)ccc4[C@H](O2)c2c(cc(C)n(Cc4ccccc4)c2=O)O3)cc1 | . | . | .
18 | CC(=O)NCN1CCN(CNC(C)=O)CC1 | -1% | 17% | 4%
19 | Cc1ccc(F)cc1CNC(=O)c1cc(COc2ccc3ncccc3c2)on1 | 2% | ? | -2%
20 | CC(C)N(Cc1nccn1C)C(=O)c1cc(COc2ccc3ncccc3c2)on1 | 0% | 13µM* | -1%

no. | A549 viability | miR-21 reporter | ClpP mod
11 | -6% | -67% | .
12 | -3% | -12% | 32µM*
13 | . | -1% | .
14 | 4% | -1% | 0%
15 | 1% | -5% | 0%
16 | 9% | 20% | -4%
17 | . | -6%[7.66 µM] | .
18 | 3% | 1% | 25µM*
19 | 2% | 19% | .
20 | -12% | 14% | .

no. | molecule | Nrf2 ARE act | Nrf2 inh | p53 reactivation
21 | O=C(NCc1cccc(Cl)c1)c1cc(COc2ccc3ncccc3c2)on1 | 4% | 10µM* | -2%
22 | CCN(CC)C(=O)C1CCCN(C(=O)c2cc(COc3ccc4ncccc4c3)on2)C1 (stereo not given) | 2% | ? | -2%
23 | CCCN1CCN(C(=O)c2cc(COc3ccc4ncccc4c3)on2)CC1 | 2% | 5.2µM* | -5%
24 | CCN1CCN(C(=O)c2cc(COc3ccc4ncccc4c3)on2)CC1 | 0% | 21µM* | -2%
25 | C#Cc1nc(Nc2cccc(Cl)c2)nc(NC2CCCC2)n1 | . | ? | .
26 | COC(=O)c1cc(F)c(S(=O)(=O)N2CCN(S(=O)(=O)c3ccc4c(c3)OCCO4)CC2)cc1F | . | 1% | .
27 | Cc1ccc(NC(=O)Cn2cc(S(=O)(=O)N3CCCC3)c(S(=O)(=O)N3CCCC3)c2)c(C)c1 | 0% | ? | .
28 | CCCCN1CC(N2CCCCC2)CS1(=O)=O (stereo not given) | 0% | . | .

no. | A549 viability | miR-21 reporter | ClpP mod
21 | -26% | 23% | .
22 | 1% | 24% | -3%
23 | -18% | 12% | -14%
24 | -12% | 15% | .
25 | -8% | . | .
26 | -4% | . | .
27 | -11% | -3% | 0%
28 | . | . | -1%

# Fetched one by one from the list above:
no. | molecule | Nrf2 ARE act | Nrf2 inh | p53 reactivation
22 | CCN(CC)C(=O)C1CCCN(C(=O)c2cc(COc3ccc4ncccc4c3)on2)C1 (stereo not given) | 2% | ? | -2%
21 | O=C(NCc1cccc(Cl)c1)c1cc(COc2ccc3ncccc3c2)on1 | 4% | 10µM* | -2%
26 | COC(=O)c1cc(F)c(S(=O)(=O)N2CCN(S(=O)(=O)c3ccc4c(c3)OCCO4)CC2)cc1F | . | 1% | .
24 | CCN1CCN(C(=O)c2cc(COc3ccc4ncccc4c3)on2)CC1 | 0% | 21µM* | -2%

no. | A549 viability | miR-21 reporter | ClpP mod
22 | 1% | 24% | -3%
21 | -26% | 23% | .
26 | -4% | . | .
24 | -12% | 15% | .

# Screening data from PubChem.
